The values below come from PubChem BioAssay AID1453 (NMMLSC, 2008).

Sequences of proteins named here, by UniProt entry; tags and fusion partners are left off.
UniProt Q9UNQ0, whole entry: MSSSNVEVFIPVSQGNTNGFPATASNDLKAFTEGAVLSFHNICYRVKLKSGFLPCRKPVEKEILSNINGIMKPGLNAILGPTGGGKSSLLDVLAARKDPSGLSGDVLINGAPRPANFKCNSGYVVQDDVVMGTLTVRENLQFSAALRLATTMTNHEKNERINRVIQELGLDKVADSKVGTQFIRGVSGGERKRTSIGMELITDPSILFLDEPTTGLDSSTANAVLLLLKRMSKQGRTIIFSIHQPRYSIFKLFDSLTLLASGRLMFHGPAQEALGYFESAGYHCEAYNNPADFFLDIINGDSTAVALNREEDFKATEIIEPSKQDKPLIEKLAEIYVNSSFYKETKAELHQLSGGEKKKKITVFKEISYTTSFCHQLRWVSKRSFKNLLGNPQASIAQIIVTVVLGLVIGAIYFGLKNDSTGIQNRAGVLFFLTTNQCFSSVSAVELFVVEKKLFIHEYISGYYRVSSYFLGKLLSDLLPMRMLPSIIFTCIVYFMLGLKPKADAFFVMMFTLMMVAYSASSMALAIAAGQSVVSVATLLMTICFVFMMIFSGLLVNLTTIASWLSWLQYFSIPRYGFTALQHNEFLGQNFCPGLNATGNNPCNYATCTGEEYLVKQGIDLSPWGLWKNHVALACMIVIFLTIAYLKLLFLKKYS

In this experiment the target is Broad substrate specificity ATP-binding cassette transporter ABCG2 (Homo sapiens) (UniProt Q9UNQ0). As to the kind of experiment: blockers of JC-1 export by ABCG2 – single point, IgMXP3 cells, ABCB1 counter-screen paired, confirmation (AID 1453).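 Also: 0% = DMSO wells and 100% = nicardipine pump inhibitor wells.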 To be noted: JC-1 efflux, flow cytometry, at 6.6 µM, stronger effect = higher value. In short, it runs like this:
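Material – drug-resistant IgMXP3 cells expressing human ABCG2 · Reagent – JC-1 substrate · Dosing – single test compound dose, 6.6 µM final · Incubation – 10 min exposure at 25 °C · Signal – high-throughput flow cytometry, JC-1 green median fluorescence, 530 ± 20 nm · Read-out – percent pump inhibition versus DMSO and nicardipine · Controls – nicardipine high, DMSO low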

The entries are a selection whose mix differs from that of the whole data set. Some results for these compounds are left out of this collection, so the calls shown say nothing about other tests. Active and inactive are the calls of the source.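 The calls were made as follows: active = inhibition above 50%; inactive = the rest.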

The inhibition is the share of the control response that was lost under treatment. Take `CN(C)c1cccc(C(=O)NCC2(N(C)C)CCCCC2)c1`: the inhibition is inactive: 15.2%.
